In data set [1] the test system is MDR1-MDCKII cells. The settings on record: MDCK-MDR1.
In data set [2] the test system is Caco-2 cells.

SMILES strings stand for the structures.

For the compound `CCC1CCc2c(sc(NC(=O)c3ccnn3C)c2C(=O)Nc2ccccc2C)C1` (centres unmarked) [Compound 4, N-(6-Ethyl-3-{[(2-methylphenyl)amino]carbonyl}-4,5,6,7-tetrahydro-1-benzothien-2-yl)-1-methyl-1H-pyrazole-5-carboxamide], the “MDR1-MDCKII permeability in the A–B direction, grade in words” value (shortened to “MDR1-MDCKII permeability”) in data set [1] is reported as “moderate”. In addition, in data set [2], the “Caco-2 permeability in the A–B direction, grade in words” value (from here on “Caco-2 permeability”) is “low permeability”.
On to `Cn1ccnc1SCC(=O)Nc1sc2c(c1C(=O)NCc1ccccc1)CCCC2` [Compound 16, N-Benzyl-2-(2-((1-methyl-1H-imidazole-2-yl)thio)acetamido)-4,5,6,7-tetrahydrobenzo[b]thiophene-3-carboxamide], for which the “MDR1-MDCKII permeability” value in data set [1] is given as “high”. Further, in data set [2], the “Caco-2 permeability” value is reported as “high permeability”.
As to `C[C@@H]1CCN(C(=O)c2c(NC(=O)c3cccnc3)sc3c2CCCC3)[C@H](C)C1` [Compound 13, N-(3-((2R,4R)-2,4-Dimethylpiperidine-1-carbonyl)-4,5,6,7-tetrahydrobenzo[b]thiophen-2-yl) Nicotinamide], in data set [1], the “MDR1-MDCKII permeability” value is listed as “high”. In data set [2], the “Caco-2 permeability” value is “high permeability”.
As for `CC1CCc2c(sc(NC(=O)c3ccccc3F)c2C(=O)N2CCN(C)CC2)C1` (centres unmarked) [Compound 6, 2-Fluoro-N-{6-methyl-3-[(4-methyl-1-piperazinyl)carbonyl]-4,5,6,7-tetrahydro-1-benzothien-2-yl} Benzamide], the “MDR1-MDCKII permeability” value in data set [1] is listed as “high”. Besides, in data set [2], the “Caco-2 permeability” value was “high permeability”.

For the origin of these results see article PMC10259452 (Journal of Medicinal Chemistry, 2023).
